This is a selection; strong and weak results do not stand in their true shares. Active and inactive are the calls of the source.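 The calls were made as follows: active = melting temperature shift of at least 10% of the positive control shift, at one fixed dose; inactive = the rest.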
Tested on: Glutamate receptor ionotropic, NMDA 3A (GRIN3A) ligand-binding domain
Experiment: binders of NR3A ligand-binding domain, primary screen, biophysical, differential scanning fluorimetry, uHTS (AID 1259313)
Settings: NR3A LBD differential scanning fluorimetry, at 25 µM, active compounds read high, 0% = protein alone, 100% = glycine-bound protein

Structure (SMILES)	Tm shift relative to glycine control
COc1ccccc1OP(C)(=O)Nc1ccc(Br)cc1 (stereo not drawn)	inactive: -0.16%
CN(C)CCOC(=O)C(O)(c1ccccc1)C1CCCC1 (stereo not drawn)	inactive: 1.09%
COc1ccc(OP(C)(=O)Nc2ccccn2)cc1 (stereo not drawn)	inactive: -4.1%
Cc1c(NP(C)(=O)Oc2ccc(C(C)C)cc2)c(=O)n(-c2ccccc2)n1C (stereo not drawn)	inactive: -0.71%
O=[N+]([O-])c1cc([N+](=O)[O-])c(Nc2ccccn2)c([N+](=O)[O-])c1	inactive: 2.37%
CCc1ccc(OP(C)(=O)O)cc1	inactive: -0.88%
COc1ccccc1OP(C)(=O)Nc1ccc(C)cc1C (stereo not drawn)	inactive: 0.26%
CP(=O)(Nc1ccccn1)Oc1ccccc1 (stereo not drawn)	inactive: -2.23%
Cc1cc(C)cc(OP(C)(=O)Nc2cccc(C(F)(F)F)c2)c1 (stereo not drawn)	inactive: -0.5%
O=C1C(O)=C([N+](=O)[O-])C(=O)C(O)=C1[N+](=O)[O-]	inactive: 1.95%
COc1ccc(OP(C)(=O)Nc2ccccc2Br)cc1 (stereo not drawn)	inactive: -3.72%
COc1ccccc1OP(C)(=O)Nc1ccc(C)c(C)c1 (stereo not drawn)	inactive: -0.37%
CP(=O)(Nc1ccc(Cl)cc1Cl)Oc1ccccc1 (stereo not drawn)	inactive: -0.24%
CCCCCCCCCCCCCCCC1C[N+](C)(C)CCOP(C)(=O)O1 (stereo not drawn)	inactive: -10.4%
CP(=O)(OCCOc1ccccc1)OCCOc1ccccc1	inactive: -0.75%
Nc1ccc2c(ccc3cccnc32)n1.O=[N+]([O-])c1cc([N+](=O)[O-])c(O)c([N+](=O)[O-])c1	inactive: -0.36%
CP(=O)(OC12CC3CC(CC(C3)C1)C2)OC12CC3CC(CC(C3)C1)C2	inactive: -1.14%
CCOC(=O)c1ccc(NP(C)(=O)Oc2ccc(Cl)cc2)cc1 (stereo not drawn)	inactive: -1.66%
COc1ccc(OP(C)(=O)Nc2ccc(Br)cc2)cc1 (stereo not drawn)	inactive: -2.19%
CCN(CC)CC(O)COC(=O)C(O)(c1ccccc1)C1CCCCC1 (stereo not drawn)	inactive: 0.17%
CCc1ccc(OP(C)(=O)Nc2cccnc2)cc1 (stereo not drawn)	inactive: -2.73%
CP(=O)(Oc1ccccc1)N1CCOC1=O (stereo not drawn)	inactive: -3.98%
O=C(OCCCN1CCCC1)C(O)(c1ccccc1)C1CCCCC1 (stereo not drawn)	inactive: 1.13%
COc1ccccc1OP(C)(=O)Nc1c(C)n(C)n(-c2ccccc2)c1=O (stereo not drawn)	inactive: -0.95%
CP(=O)(Nc1ccc(Cl)cc1)Oc1ccc(F)cc1 (stereo not drawn)	inactive: -1.03%
COc1ccccc1OP(C)(=O)Nc1ccccc1Br (stereo not drawn)	inactive: -0.77%
CC(C)(C)c1ccc(OP(C)(=O)O)cc1	inactive: -1.33%
CN(C)C(=O)c1c([N+](=O)[O-])cc([N+](=O)[O-])cc1[N+](=O)[O-]	inactive: -3.51%

— PubChem BioAssay AID1259313 (Sanford-Burnham Center for Chemical Genomics, 2017)
